{"source": "patent US20120289611A1", "about": "“PECTIN COMPOUNDS, METHODS OF USING PECTIN COMPOUNDS, AND METHODS OF CONTROLLING WATER SOLUBILITY” (priority 2009, published 2012)", "origin": "cited, not measured here", "details": "in water (where stated)", "data": [{"smiles": "Cc1nc2n(c(=O)c1CCN1CCC(c3noc4cc(F)ccc34)CC1)CCCC2", "note": "[Risperidone]", "values": [{"measurement": "solubility", "result": 2.8, "unit": "mg/L"}]}]}
